Two substances from paper PMC5186412 (Future medicinal chemistry, 2015) can be followed below.

The conditions of the data set: PAMPA.

On to daptomycin [reference compound], for which the “passive permeability (in words)” value is given as “poor passive permeability”. As to cyclosporin E [CSE], where the note is “16 h”, the logPe is listed as −6.4. The substance also returned a ΔlogPe (relative to CSA (logPe = −5.01)) of −1.37.
